{"source": "patent US7713914B2", "about": "(priority 2005, dated 2010)", "test_system": "Bacillus cereus spores", "assay_type": "cell-based", "data": [{"smiles": "CC(=O)O", "note": "[glacial acetic acid, acetic acid]", "values": [{"measurement": "DPA SERS signal", "value": "no DPA SERS signal was observed"}]}]}
